Source: PMC8386128, “Evaluation of Short-Chain Antimicrobial Peptides With Combined Antimicrobial and Anti-inflammatory Bioactivities for the Treatment of Zoonotic Skin Pathogens From Canines” (Frontiers in Microbiology, 2021)
No end group written: not given here.

System: sheep and mouse erythrocytes
Conditions: red cells of sheep, 2 h

## AAVTRRILCWFA-NH2 [Allomyrinasin]
  minimum hemolytic concentration (MHC), required to cause 10% hemolysis: 128 to 256 µg/mL
